Values of other authors, collected in paper PMC11678063.

Target: amyloid beta (Homo sapiens)

Kd: 0.98 nM
Substance: calmodulin (from UniProt P0DP23)
